Broadly, the inhibition is how much of the control response was suppressed.

This is a selection; strong and weak results do not stand in their true shares. Activity calls are given as the source filed them.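 Rule for the calls: active = mean inhibition over three repeats above a set limit taken from the earlier primary screen (cut at about 30% in these data); inactive = the rest.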

For this assay, the target named is Platelet-activating factor acetylhydrolase 2, cytoplasmic (Homo sapiens) (UniProt Q99487). Put plainly: inhibition of cytoplasmic PAF acetylhydrolase 2 – biochemical, fluorescence polarization, human, confirmation (AID 493030).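 Note: inhibitor blocks binding of rhodamine activity probe so polarization falls; 0% = enzyme with DMSO and 100% = wells lacking PAFAH2 protein.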 To be noted: recombinant PAFAH2, FP-rhodamine activity probe, at 3.39 µM, hits give high values. For orientation: Fluorescence polarisation rises when a labelled molecule tumbles more slowly, as on binding a larger partner.
Consider `O=[N+]([O-])c1ccc(O)c(/C=N/Nc2ccc([N+](=O)[O-])cc2[N+](=O)[O-])c1`, for which the inhibition is active: 39%.
